For this data set the following is noted: supplement included in feed.

As for basic zinc chloride [Zn5(OH)8Cl2.(H2O)], the absorption by chicks entry is given as “readily absorbed”.

For the origin of these results see patent US8802180B2, “Micronutrient supplement” (Heritage Technologies, LLC, priority 2011, dated 2014).
